Source: ChEMBL document CHEMBL5532729, “Nonsymmetrically Substituted 1,1'-Biphenyl-Based Small Molecule Inhibitors of the PD-1/PD-L1 Interaction” (ACS Med Chem Lett, 2024)
pEC50: −log10 of the molar value.

What follows are molecules tested against Programmed cell death protein 1/Programmed cell death 1 ligand 1 (Homo sapiens, UniProt Q9NZQ7).
Molecule Cc1c(NC(=O)c2ccc(CNCCCO)cn2)cccc1-c1cccc(NC(=O)c2ccc(CN[C@@H](C)CO)cn2)c1C has a pEC50 of 7.46. Work on Cc1c(NC(=O)c2ccc(CN[C@@H](C)CO)cn2)cccc1-c1cccc(NC(=O)c2ccc(CN[C@@H]3CCC[C@H]3O)cn2)c1C yielded a pEC50 of 6.89. Work on Cc1c(NC(=O)c2ccc(CN3CCN(S(C)(=O)=O)CC3)cn2)cccc1-c1cccc(NC(=O)c2cc(CNCCO)ccn2)c1C yielded a pEC50 of 6.04.
